Test results reported in patent publication US20240358848A1, “ANTITUMOR COMPOUND AND USE THEREOF” (priority 2021, published 2024).
Values joined by “and” are separate entries in the source; they are usually repeats but may differ in a detail not shown here. Equal entries are not always repeated.

Key:
[1] = tested on: Human breast cancer cells SK-BR-3; assay: In vitro anti-proliferation test in human-derived tumor cells (CellTiter Glo, 120 h), SK-BR-3; assay type: cell-based; conditions: SK-BR-3, 120 h; for Highest inhibition rate %: highest ADC concentration 1 μM; for IC50: read-out: Absolute IC50
[2] = tested on: NCI-N87 subcutaneous xenograft; assay: In vivo anti-tumor efficacy assay, NCI-N87 subcutaneous xenograft nude mice model; design: species or system BALB/c nude mice; conditions: 10 mg/kg, tail vein, once
[3] = tested on: gastric cancer cells NCI-N87; assay: In vitro anti-proliferation test in human-derived tumor cells (CellTiter Glo, 120 h), NCI-N87; assay type: cell-based; conditions: NCI-N87, 120 h, highest ADC concentration 1 μM

| Substance | Highest inhibition rate % [1] [%] | IC50 [1] [nM] | Tumor Growth Inhibition TGI (%) [2] [%] | Highest inhibition rate % [3] | Highest inhibition rate % ([1]; 1 µM) |
| --- | --- | --- | --- | --- | --- |
| Trastuzumab ADC I-1-a | 92.53 | 8 | 111 |  |  |
| Trastuzumab ADC I-12-a |  |  |  | 93.77% and 92.17% | 92.52% and 99.60% |
| Trastuzumab ADC I-3-a | 91.74 | 6 |  |  |  |
